Measured values taken from US20210269480A1 (published 2021).

B1: BCY8831 (peptide)
peptide: CPXXCMXDWSTPXWC
modifications: N-terminal acetyl; core printed as CP[1Nal][dK]CM[HArg]DWSTP[HyP]WC; three Cys bound to TATA scaffold
notes: Bicyclic peptide cyclised with TATA
B2: BCY8549 (peptide)
peptide: CPXXCMXDWSTPXWC
modifications: not fully specified; MMAE-PABC-cyclobutyl-(B-Ala)- on the N-terminal extension [B-Ala][Sar10]; core printed as CP[1Nal][dD]CM[HArg]DWSTP[HyP]WC; three Cys bound to TATA scaffold
notes: also called MMAE-PABC-cyclobutyl-(B-Ala)-BCY8234
B3: BCY8550 (peptide)
peptide: CPXXCMXDWSTPXWC
modifications: N-terminal acetyl; MMAE-PABC-Cit-Val-Glutaryl- linked at the Lys3 position ([dK]; cysteines not counted); core printed as CP[1Nal][dK]CM[HArg]DWSTP[HyP]WC; three Cys bound to TATA scaffold
notes: also called MMAE-PABC-Cit-Val-Glutaryl-(Lys3)-BCY8831

The binders below were run against T1, human Nectin-4 (human, UniProt Q96NY8 32-349) (assay: FP competition, tracer SEQ ID NO 217).
T1 construct: a Gly32-Ser349 FLAG construct is described only under the SPR assay; also called PVRL4
T1 sequence (looked up): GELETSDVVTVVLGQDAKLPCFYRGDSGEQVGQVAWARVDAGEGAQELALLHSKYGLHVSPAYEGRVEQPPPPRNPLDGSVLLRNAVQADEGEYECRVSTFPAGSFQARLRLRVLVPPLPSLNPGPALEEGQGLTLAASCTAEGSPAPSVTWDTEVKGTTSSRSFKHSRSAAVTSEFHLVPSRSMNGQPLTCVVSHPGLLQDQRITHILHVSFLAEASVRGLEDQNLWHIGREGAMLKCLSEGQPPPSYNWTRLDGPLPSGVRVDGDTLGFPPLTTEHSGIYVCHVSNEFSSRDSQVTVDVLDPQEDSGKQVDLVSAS
Method: Peptides were diluted to an appropriate concentration in assay buffer as described in the direct binding assay with a maximum of 5% DMSO, then serially diluted 1 in 2. […] Measurements were conducted as for the direct binding assay, however the gain was determined prior to the first measurement. Data analysis was in Systat Sigmaplot version 12.0 where the mP values were fit to a user defined cubic equation to generate a Ki value: […]

First: CPFGCMKNWSWPIXC (not fully specified; N-terminal Ac; CPFGCMKNWSWPI[AzaTrp]C; TATA on 3 Cys) [BCY7598]
Second: CPFGCMQNWSWPIWC (N-terminal Ac; TATA on 3 Cys) [BCY7615]
The Ki of the first is 2.6-fold higher: 74.9 nM for the first, 28.4 nM for the second.

Going from CPFGCMKNWSWPPWC (N-terminal Ac; TATA on 3 Cys) [BCY7618] to CPYGCMKNWSWPIWC (N-terminal Ac; TATA on 3 Cys, also called 80-09-02-N046) [BCY7657], the Ki rises from 13 nM to 23.2 nM (1.8-fold). The first binds more tightly here.

Compared with CPFGCMXNWSWPIWC (N-terminal Ac; CPFGCM[K(Ac)]NWSWPIWC; TATA on 3 Cys) [BCY7616], QKWCAPLSAYWCNRIC (N-terminal Ac; TATA on 3 Cys) [BCY7628] is 2.2-fold lower in Ki: 51 nM for the first, 23 nM for the second. The second binds more tightly here.

CXFGCMKNWSWPIWC (N-terminal Ac; C[HyP]FGCMKNWSWPIWC; TATA on 3 Cys) [BCY7668] and ACYPLSPYWCERICA (TATA on 3 Cys) [BCY431] are within 1.5-fold of each other in Ki: 424 nM for the first, 412 nM for the second.

Going from ACPFGCMKNWSWPIWCTAK (dA as second residue of the C-terminal tail; TATA on 3 Cys) [BCY7368] to ACPFGCMKNWSWPIWCTNA (C-terminal dA; TATA on 3 Cys) [BCY7369], the Ki rises from 23 nM to 77.8 nM (3.4-fold). The first binds more tightly here.

CPXGCMKNWSWPIWC (N-terminal Ac; CP[3MePhe]GCMKNWSWPIWC; TATA on 3 Cys) [BCY7580] and CPXGCMKNWSWPIWC (N-terminal Ac; CP[4MePhe]GCMKNWSWPIWC; TATA on 3 Cys) [BCY7581] are within 1.5-fold of each other in Ki: 13.5 nM for the first, 19.4 nM for the second.

CPFXCMKNWSWPIWC (N-terminal Ac; CPF[dD]CMKNWSWPIWC; TATA on 3 Cys) [BCY7584] and CPFGCXKNWSWPIWC (N-terminal Ac; CPFGC[Hse(Me)]KNWSWPIWC; TATA on 3 Cys) [BCY7585] are within 1.5-fold of each other in Ki: 13.5 nM for the first, 18.5 nM for the second.

Going from CPFGCMKNXSWPIWC (not fully specified; N-terminal Ac; CPFGCMKN[AzaTrp]SWPIWC; TATA on 3 Cys) [BCY7588] to CPFGCMKNWSXPIWC (not fully specified; N-terminal Ac; CPFGCMKNWS[AzaTrp]PIWC; TATA on 3 Cys) [BCY7593], the Ki falls from 342 nM to 28 nM (12-fold). The second binds more tightly here.

These binders were tested against T2, Human Nectin-4 (residues Gly32-Ser349) with C-terminal FLAG tag, biotinylated (human, UniProt Q96NY8 32-349, randomly biotinylated with EZ-Link Sulfo-NHS-LC-LC-Biotin) (assay: SPR (Biacore), biotinylated human Nectin-4 on streptavidin chip).
T2 construct: range 32-349; Captured through biotin on a streptavidin CM5 chip in the SPR assay; also called PVRL4; not shown: C-terminal FLAG tag
T2 sequence (looked up): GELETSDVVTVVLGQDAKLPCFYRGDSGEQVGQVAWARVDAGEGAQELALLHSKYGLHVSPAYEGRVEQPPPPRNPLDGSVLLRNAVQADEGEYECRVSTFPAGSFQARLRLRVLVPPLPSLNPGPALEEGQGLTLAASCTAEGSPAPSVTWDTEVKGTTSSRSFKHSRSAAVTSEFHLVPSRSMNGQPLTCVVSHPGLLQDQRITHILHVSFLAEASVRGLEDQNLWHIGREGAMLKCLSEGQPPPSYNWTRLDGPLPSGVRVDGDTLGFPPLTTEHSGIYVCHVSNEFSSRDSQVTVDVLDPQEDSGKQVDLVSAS

For B1, the Kd was 2.14 nM.

Target: T2, Human Nectin-4 (residues Gly32-Ser349) …
Assay: as above
Remark: another data set of the same source

Going from B2 to B3, the Kd falls from 1.44 nM to 0.27 nM (5.3-fold). The second binds more tightly here.
